A selection: hits, their analogues and other compounds. The true share with any hit is near 13%.
LMNA splice mod: LMNA splicing modulation. HeLa LMNA splicing GFP/RFP minigene ratio, 48 h. Potency, µM (top dose mostly 46.1 µM), inactives show at the top dose ratio change, negative = inhibition, actives largely listed as inhibitors. 200,000 compounds, 0.01% hits; active = well fitted inhibition curve with a large enough effect in the signal ratio, with a control signal flat, not every such curve was filed as active; inconclusive = small, poorly fitted or top-dose-only effect, or effect the other way, or a change in a side signal; the % refers to the signal ratio; note: potency is the fitted concentration of half-maximal effect; % is set by controls: 0 for no effect and ±100 for the full control effect
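S3 HeLa cells stably expressing lamin A-EGFP splicing minigene plus DsRed2, 600 cells/well, 48 h compound exposure at 37C. Laser-scanning cytometry; analysed as GFP (500-530 nm)/RFP (575-640 nm) total intensity ratio; 0.5% DMSO vehicle.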
miR-21 reporter: miR-21 reporter, rising signal. 340,000 tested, under 10 active. Potency, µM (highest dose often 38.3 µM), for the others: at the highest dose reporter change, positive = more light. HeLa miR-21 FLuc reporter, luciferase, 48 h. AID 2288; active = well fitted rising curve with a large enough effect; inconclusive = small, poorly fitted or top-dose-only effect; inactive = no such curve, though single readings can be large or run the other way;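 further: % of control where 0% means no effect; miR-21 action dims this reporter so a rising signal means less miR-21 action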
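HeLa cells stably expressing CMV-driven firefly luciferase with a downstream miR-21 binding sequence, endogenously expressing miR-21, were treated with titrations (up to about 40uM final) for 48 hours at 37 degree Celsius. Luciferase luminescence was read after lysis.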
ALDH1A1 block: blocks purified human ALDH1A1 activity. Purified ALDH1A1, NADH fluorescence, propionaldehyde substrate. Potency, µM (top dose mostly 75.3 µM), for the others: at the top dose activity, negative = inhibition, most hits filed as inhibitors. 220,000 compounds, 7.3% hits. AID 1030; active = well fitted inhibition curve with a large enough effect, not every such curve was filed as active; inconclusive = small, poorly fitted or top-dose-only effect, or another doubt; inactive = no such curve, though single readings can be large or run the other way;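 note: potency is the fitted concentration of half-maximal effect; plate controls were no enzyme wells and a reference inhibitor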
Sfp PPTase inh: Sfp phosphopantetheinyl transferase inhibition. 3.5% of 310,000 active. AID 1490. Potency, µM, inactives show max response, negative = inhibition, actives largely listed as inhibitors. Biochemical Sfp PPTase activity, qHTS; active = well fitted inhibition curve with a large enough effect; inconclusive = small, poorly fitted or top-dose-only effect, or another doubt; inactive = no such curve, though single readings can be large or run the other way;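 note: the enzyme is Sfp with the accession as filed and its product quenches rhodamine fluorescence; potency is the fitted concentration of half-maximal effect; 0% = enzyme reaction without inhibitor and -100% = no enzyme wells; top concentration of the series not given in the record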
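Compounds were incubated with enzyme (final 15 nM) for 15 min at room temperature before substrate addition started the reaction. Fluorescence at 525 nm excitation, 598 nm emission was recorded immediately and after 30 minutes.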
JMJD2E inh: inhibitors of human JMJD2E histone demethylase; B2RXH2; JMJD2E catalytic domain, FDH-coupled NADH fluorescence (FDH is formaldehyde dehydrogenase); Potency, µM (doses to about 57.1 µM), without a hit: at the top dose activity change, negative = inhibition, actives largely listed as inhibitors; 230,000 compounds, 1.6% hits; AID 2147; active = well fitted inhibition curve with a large enough effect, not every such curve was filed as active; inconclusive = small, poorly fitted or top-dose-only effect, or another doubt; inactive = no such curve, though single readings can be large or run the other way;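 note: potency is the fitted concentration of half-maximal effect; 0% = wells with enzyme and -100% = buffer wells without enzyme; nearly all actives have a fitted effect of over 50% in size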
G9a block: G9a (human) methyltransferase inhibition; G9a H3K9 monomethylation, AlphaScreen, 2 h; Q96KQ7; Potency, µM (titrated, usually from 102 µM), inactives show at the top dose activity, negative = inhibition, hits mostly inhibitors; AID 504332; 350,000 compounds, 8.8% hits; note: potency is the fitted concentration of half-maximal effect; % is set by controls: 0 for no effect and ±100 for the full control effect; nearly all actives have a fitted effect of over 75% in size
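Chemiluminescent proximity detection of H3K9 monomethylation, read after 10 min bead incubation in the dark. Reaction: 20 nM G9a, 500 nM biotin-H3K9 peptide, 20 uM SAM cofactor, 2 h, room temperature, following 15 min enzyme-compound preincubation.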
Numbers without * were called inactive; ? = inconclusive; . = not tested or not shown; [ ] = remark or other dose. Unless noted, calls come from the whole dose curve; as a rule, active = well fitted curve in the direction sought with a large enough effect; inconclusive = small, poorly fitted or top-dose-only effect, or another doubt; inactive = no such curve, though single readings can be large; an effect the other way counts as inactive or inconclusive.

1	FC(F)(F)c1nc(=S)c2ccccc2[nH]1
2	CN(C)S(=O)(=O)c1ccc2c(c1)N(CC(=O)NCc1ccccc1)C(=O)C1CCCCN21 (stereo not drawn)
3	Cc1ccc(C)c(NC(=O)C(Sc2nnc(-c3cccs3)o2)c2ccccc2)c1 (stereo not drawn)
4	O=C(Nc1ccc(Cl)cc1C(F)(F)F)C(Sc1cccc[n+]1[O-])c1ccccc1 (stereo not drawn)
5	Cc1ccc(C)c(OC(=O)CSc2nnc(-c3cccs3)o2)c1
6	Cc1ccc(C)c(NC(=O)C(Sc2cccc[n+]2[O-])c2ccccc2)c1 (stereo not drawn)
7	COc1ccc(C(=O)NCCc2nc3ccccc3[nH]2)cc1
8	CCOC(=O)c1cccc(NC(=O)N2Cc3ccccc3Oc3ncccc32)c1
9	Cc1nc(NC(=O)CN2CCOCC2)sc1C(=O)N(C)C
10	Cc1nc(NC(=O)CN2CCCCC2)sc1C(=O)N(C)C

| assay / compound | 1 | 2 | 3 | 4 | 5 | 6 | 7 | 8 | 9 | 10 |
| --- | --- | --- | --- | --- | --- | --- | --- | --- | --- | --- |
| LMNA splice mod | . | 4%[46 µM] | -3% | ? | . | -8%[9.22 µM] | . | . | . | . |
| miR-21 reporter | 0% | -1% | -20% | 3% | -1% | 1% | -17% | -9% | -6% | -5% |
| ALDH1A1 block | 8.9µM* | . | ? | -3% | . | 0% | . | . | . | . |
| Sfp PPTase inh | 20µM* | . | 21% | 2% | . | -11% | . | . | 5% | -7% |
| JMJD2E inh | 10µM* | . | -1% | -5% | . | -1% | . | . | . | . |
| G9a block | 67% | 5%[59 µM] | 79µM* | . | -32%[59 µM] | 45µM* | -32%[59 µM] | 5%[59 µM] | ? | 79µM* |

11	N#C/C(=C(/O)CSc1ncn[nH]1)c1nc2ccccc2[nH]1
12	Cc1ccc(S(=O)(=O)N(C)C)cc1NC(=O)C1CCCCN1S(=O)(=O)c1ccccc1 (stereo not drawn)
13	NC(=O)c1cc[n+](CC2=C(C(=O)O)N3C(=O)[C@@H](NC(=O)[C@H](c4ccccc4)S(=O)(=O)[O-])[C@@H]3SC2)cc1
14	NC(=O)c1cc[n+](CC2=C(C(=O)O)N3C(=O)C(NC(=O)C(c4ccccc4)S(=O)(=O)[O-])C3SC2)cc1 (stereo not drawn)
15	NC(=O)c1cc[n+](CC2=C(C(=O)[O-])N3C(=O)[C@@H](NC(=O)Cc4cccs4)[C@@H]3SC2)cc1
16	CCOc1ccc(-c2nc(Cn3c(=O)cc(-c4ccccc4)c4c(C)nn(C)c43)c(C)o2)cc1OC
17	COc1ccc(Cn2nnnc2C(c2cccs2)N2CCN(c3ccccc3)CC2)cc1 (stereo not drawn)
18	Oc1ccc(N2CCN(C(c3cccs3)c3nnnn3CCc3ccccc3)CC2)cc1 (stereo not drawn)
19	c1ccc(Cn2nnnc2C(c2cccs2)N2CCCCCC2)cc1 (stereo not drawn)
20	CC(C)c1ccc(NC(=O)CCS(=O)(=O)c2ccc3c(c2)CC(=O)N3C)cc1

| assay / compound | 11 | 12 | 13 | 14 | 15 | 16 | 17 | 18 | 19 | 20 |
| --- | --- | --- | --- | --- | --- | --- | --- | --- | --- | --- |
| LMNA splice mod | ? | . | ? | . | ? | -10%[46 µM] | ? | ? | 4% | . |
| miR-21 reporter | 7% | . | . | . | . | -9% | 3% | -8% | -3% | 1% |
| ALDH1A1 block | -5% | . | -3%[20.9 µM] | ? | 12%[20.9 µM] | . | -6% | 25µM* | 14µM* | . |
| Sfp PPTase inh | -1% | . | ? | -54% | -11% | . | -3% | 50µM* | -3% | . |
| JMJD2E inh | ? | . | -28%[25.5 µM] | ? | 13%[25.5 µM] | . | 6% | ? | 12% | . |
| G9a block | ? | -30%[12.7 µM] | 5.6µM* | . | 7.9µM* | -4%[59 µM] | 9%[59 µM] | ? | ? | 7%[59 µM] |

21	O=C(Nc1ccc(OC(F)F)c(Cl)c1)C(c1ccccc1)c1ccccc1
22	O=C1c2ccc(Br)cc2C(=O)N1c1ccc(Cl)cn1
23	C=CCN1C(=O)/C(=c2\sc3nc(=O)c(Cc4ccccc4Cl)nn3c2=O)c2ccccc21
24	C=CCN1C(=O)/C(=C2/C(=O)N(CC(=O)O)c3ccccc32)S/C1=N/c1nccs1
25	CCN(CC)CCCNC(=O)c1cc(Nc2ccc(OC)cc2)nc2ccccc12
26	Cc1nn(C)c2c1c(C(F)(F)F)cc(=O)n2C(C)C(=O)N1CCN(c2ccccc2)CC1 (stereo not drawn)
27	COc1ccc(N2CCN(C(=O)C(C)n3c(=O)cc(C(F)(F)F)c4c(C)nn(C)c43)CC2)cc1 (stereo not drawn)
28	O=C(O)CC1(C(=O)O)CCCCC1
29	COc1ccc(CN2CCC(Cc3ccccc3)CC2)cc1OC
30	COc1ccc(CCNC(=O)c2ccc(CN3CCC(Cc4ccccc4)CC3)cc2)cc1OC

| assay / compound | 21 | 22 | 23 | 24 | 25 | 26 | 27 | 28 | 29 | 30 |
| --- | --- | --- | --- | --- | --- | --- | --- | --- | --- | --- |
| LMNA splice mod | ? | . | ? | 3% | . | ? | -2%[46 µM] | . | . | ? |
| miR-21 reporter | ? | -1% | 1% | -2% | 0% | ? | 23% | . | 2% | -3% |
| ALDH1A1 block | 14µM* | . | 3.5µM* | -14% | . | . | . | 1%[13.5 µM] | . | 8% |
| Sfp PPTase inh | 30% | 13% | 11µM* | -21% | -4% | . | . | . | -2% | 14% |
| JMJD2E inh | 0% | . | -7% | -1% | . | . | . | . | . | 5% |
| G9a block | 73%[59 µM] | 9% | 11µM* | 1%[2.33 µM] | 1%[2.33 µM] | -9%[59 µM] | 10µM* | . | 50µM* | -10%[59 µM] |

31	CCOc1ccc(CN2CCC(Cc3ccccc3)CC2)cc1
32	COc1cccc(OC)c1OCCCN1CCC(Cc2ccccc2)CC1
33	CCCCOc1ccc(CN2CCC(O)CC2)cc1
34	Cc1cc(C)c(C(=O)N2CCC(N3CCC(C(=O)NC(C)C)CC3)CC2)o1
35	O=C(COC(=O)CCC1CCCC1)Nc1ccc(F)cc1
36	Cc1ccc(C(=O)NCCC(=O)N2CCOCC2)cc1
37	OC(COc1ccc(Cl)cc1)CN1CCC(Cc2ccccc2)CC1 (stereo not drawn)
38	COc1cc(C(=O)OCC(=O)N2CCC(Cc3ccccc3)CC2)cc(OC)c1OC
39	OC(COc1ccc(C2C=CCC2)cc1)CN1CCCCC1 (stereo not drawn)
40	O=[N+]([O-])c1cccc(CN2CCC(Cc3ccccc3)CC2)c1

| assay / compound | 31 | 32 | 33 | 34 | 35 | 36 | 37 | 38 | 39 | 40 |
| --- | --- | --- | --- | --- | --- | --- | --- | --- | --- | --- |
| LMNA splice mod | . | . | 1% | . | . | . | . | . | 19% | . |
| miR-21 reporter | -3% | 18% | -28% | 0% | . | -27% | 0% | . | -13% | -1% |
| ALDH1A1 block | . | . | 32µM* | . | . | . | . | . | 8% | . |
| Sfp PPTase inh | 1% | -14% | 79µM* | -2% | . | 0% | 5% | . | 18% | 0% |
| JMJD2E inh | . | . | 6% | . | . | . | . | . | 0% | . |
| G9a block | 45µM* | 25µM* | . | . | 8%[59 µM] | . | 28µM* | 8.9µM* | 40µM* | 35µM* |

Look-ups from the results shown:
In G9a block, #22 has the entry 9%
In G9a block, #25 has the entry 1%[2.33 µM]
In Sfp PPTase inh, #37 has the entry 5%

(more compounds)
41	Cc1ccc(C(=O)NCC(=O)OCC(=O)c2ccc(Br)s2)cc1
42	CCOc1cc(/C=C2\C(=N)N3N=C(S(=O)(=O)CC)SC3=NC2=O)ccc1OC(=O)c1ccco1
43	N=C1/C(=C\c2ccc(SCc3ccccc3)o2)C(=O)N=C2SC=NN12
44	COc1ccccc1OCCOc1ccc(/C=C2/C(=N)N3OC(C)=CC3=NC2=O)cc1OC
45	CC(C)S(=O)(=O)C1=NSC2=NC(=O)/C(=C\c3ccc(OC(=O)c4ccco4)cc3)C(=N)N21
46	CCS(=O)(=O)C1=NSC2=NC(=O)/C(=C\c3ccc(OC(=O)c4ccco4)cc3)C(=N)N21
47	O=S(=O)(c1ccc(-c2cc(C(F)(F)F)on2)s1)N1CCN(c2ccccc2F)CC1

| assay / compound | 41 | 42 | 43 | 44 | 45 | 46 | 47 |
| --- | --- | --- | --- | --- | --- | --- | --- |
| LMNA splice mod | . | . | . | 0% | . | . | . |
| miR-21 reporter | . | 4% | -4% | 2% | -1% | 0% | 4% |
| ALDH1A1 block | . | . | 7% | 4% | . | . | . |
| Sfp PPTase inh | . | ? | 5% | 8% | 2% | -7% | . |
| JMJD2E inh | . | . | 1% | 1% | . | . | . |
| G9a block | 9%[0.501 µM] | 45µM* | 50µM* | 71µM* | 19%[0.0925 µM] | 45µM* | 5%[59 µM] |

Single records, as listed above:
CCS(=O)(=O)C1=NSC2=NC(=O)/C(=C\c3ccc(OC(=O)c4ccco4)cc3)C(=N)N21 is entered as LMNA splice mod = .; miR-21 reporter = 0%; ALDH1A1 block = .; Sfp PPTase inh = -7%; JMJD2E inh = .; G9a block = 45µM*
N=C1/C(=C\c2ccc(SCc3ccccc3)o2)C(=O)N=C2SC=NN12 is entered as LMNA splice mod = .; miR-21 reporter = -4%; ALDH1A1 block = 7%; Sfp PPTase inh = 5%; JMJD2E inh = 1%; G9a block = 50µM*

Source: PubChem BioAssay
